Laboratory results: patent US10030064B2, “Mammalian cell culture processes for protein production” (priority 2009, dated 2018)

What was measured:
[1] = test system: CHO DG44 cell line expressing the fusion glycoprotein; assay: Shake flask CHO culture: total sialic acid content, N-linked and O-linked oligosaccharide profile of the secreted fusion glycoprotein; format: cell-based, Chinese hamster
Experimental: The CHO cell line used in this study was originally subcloned from DG44 parental cells and cultured in a proprietary protein-free growth medium.
The experiments were carried out in 250-mL shake flasks (VWR international) with starting volumes of 100 mL and initial cell densities of 6×10^5 cells/mL. The cultures were placed on a shaker platform (VWR international) at 150 rpm and maintained at 37° C. and 6% CO2 for ten days. The cultures were sampled daily and the pH was adjusted as needed using 1M sodium carbonate and fed with glucose and glutamine every two days in order to maintain them at adequate levels. Cell density and viability were measured offline using a Cedex automated cell counter (Innovatis AG, Bielefeld, Germany). Culture pH and concentrations for glucose and glutamine were measured off-line using a Bioprofile Analyzer 400 (Nova Biomedical Corporation, Waltham, Mass.).
The sialic acid to recombinant protein molar ratio was calculated by determining the sialic acid and recombinant protein concentrations. […] The protein concentrations were determined by UV absorbance at 280 nm. […]
This study was performed in duplicate 250-mL shake flasks using the culture conditions as described above. […] Cultures were harvested on day 10, and the fusion protein was purified using a protein A column and analyzed for total sialic acid content, O-linked sialic acid content and the N-linked profile.

[2] = test system: GILZ (glucocorticoid-induced leucine zipper); assay: qRT-PCR of GILZ gene expression in CHO cells; format: cell-based, Chinese hamster
Experimental: TaqMan® 5′-nuclease real-time quantitative RT-PCR assay was performed to verify the upregulation of GILZ by DEX. Total RNA, purified from each triplicate culture with and without 1 μM DEX using the RNeasy® midi kit as described above. Purified RNA was treated with RNasefree DNaseI (Qiagen) and then used as a template to synthesize the first-strand cDNA using RT^2 First Strand Kit (SA Biosciences, Frederick, Md.). Expression of GILZ was quantitatively determined using GILZ specific TaqMan MGB probe (6-FAM-AGAGGACTTCACGTGT) and primers (Forward: 5-[…]-3 and Reverse: 5-TGGTGGGTTTGGCATTCAA-3). 20 ng of cDNA was amplified using 900 nM primers and 250 nM probe in 1× TaqMan Fast Universal PCR Master Mix (Applied Biosystems, Carlsbad, Calif.). Reactions were run in triplicate on the Applied Biosystems 7500 Fast Real-Time PCR System using the universal cycling parameters (20 s 95° C., 40 cycles of 3 s 95° C., 30 s 60° C.). Parallel reactions were set up on the same plate analyzing β-Actin in each sample as an endogenous control. The threshold cycle of each gene was normalized against the threshold cycle of “housekeeping gene” […]. Normalized changes in gene expression with respect to the control were calculated using delta-delta threshold cycle method (Livak and Schmittgen, 2001).
GILZ was analyzed using qRT-PCR to validate the gene expression profiles obtained by microarray analysis. RNA samples from day 5 and 8 for triplicate DEX treated and untreated cultures were applied in TaqMan® qPCR quantification. Parallel reactions were set up on the same plate analyzing β-Actin in each sample as an endogenous control.

C[C@@H]1C[C@H]2[C@@H]3CCC4=CC(=O)C=C[C@]4(C)[C@@]3(F)[C@@H](O)C[C@]2(C)[C@@]1(O)C(=O)CO [DEX, dexamethasone]
normalized total sialic acid content ([1]; 0.1 μM DEX, without RU-486): 15.1±0.1
Percent increase of N-link-Tri and tetra- ([1]; DEX 1.0 μM added day 2, harvest day 10): 15.9%
fold change of GILZ gene expression ([2]; 0.1 μM DEX, with 1 μM RU-486): 1.8±0.9
fold change of GILZ gene expression ([2]; 0.1 μM DEX, without RU-486): 9.0±1.9
fold change of GILZ gene expression ([2]; 1 μM DEX, with 1 μM RU-486): 2.3±1.0
fold change of GILZ gene expression ([2]; 1 μM DEX, without RU-486): 11.3±3.0
